Experimental findings from paper PMC8260228, “Two de novo GluN2B mutations affect multiple NMDAR-functions and instigate severe pediatric encephalopathy” (eLife, 2021) are described below.

Sequences of proteins named here, by UniProt entry; tags and fusion partners are left off. Residues count along the entry.
UniProt Q13224, 27-1484 G689S: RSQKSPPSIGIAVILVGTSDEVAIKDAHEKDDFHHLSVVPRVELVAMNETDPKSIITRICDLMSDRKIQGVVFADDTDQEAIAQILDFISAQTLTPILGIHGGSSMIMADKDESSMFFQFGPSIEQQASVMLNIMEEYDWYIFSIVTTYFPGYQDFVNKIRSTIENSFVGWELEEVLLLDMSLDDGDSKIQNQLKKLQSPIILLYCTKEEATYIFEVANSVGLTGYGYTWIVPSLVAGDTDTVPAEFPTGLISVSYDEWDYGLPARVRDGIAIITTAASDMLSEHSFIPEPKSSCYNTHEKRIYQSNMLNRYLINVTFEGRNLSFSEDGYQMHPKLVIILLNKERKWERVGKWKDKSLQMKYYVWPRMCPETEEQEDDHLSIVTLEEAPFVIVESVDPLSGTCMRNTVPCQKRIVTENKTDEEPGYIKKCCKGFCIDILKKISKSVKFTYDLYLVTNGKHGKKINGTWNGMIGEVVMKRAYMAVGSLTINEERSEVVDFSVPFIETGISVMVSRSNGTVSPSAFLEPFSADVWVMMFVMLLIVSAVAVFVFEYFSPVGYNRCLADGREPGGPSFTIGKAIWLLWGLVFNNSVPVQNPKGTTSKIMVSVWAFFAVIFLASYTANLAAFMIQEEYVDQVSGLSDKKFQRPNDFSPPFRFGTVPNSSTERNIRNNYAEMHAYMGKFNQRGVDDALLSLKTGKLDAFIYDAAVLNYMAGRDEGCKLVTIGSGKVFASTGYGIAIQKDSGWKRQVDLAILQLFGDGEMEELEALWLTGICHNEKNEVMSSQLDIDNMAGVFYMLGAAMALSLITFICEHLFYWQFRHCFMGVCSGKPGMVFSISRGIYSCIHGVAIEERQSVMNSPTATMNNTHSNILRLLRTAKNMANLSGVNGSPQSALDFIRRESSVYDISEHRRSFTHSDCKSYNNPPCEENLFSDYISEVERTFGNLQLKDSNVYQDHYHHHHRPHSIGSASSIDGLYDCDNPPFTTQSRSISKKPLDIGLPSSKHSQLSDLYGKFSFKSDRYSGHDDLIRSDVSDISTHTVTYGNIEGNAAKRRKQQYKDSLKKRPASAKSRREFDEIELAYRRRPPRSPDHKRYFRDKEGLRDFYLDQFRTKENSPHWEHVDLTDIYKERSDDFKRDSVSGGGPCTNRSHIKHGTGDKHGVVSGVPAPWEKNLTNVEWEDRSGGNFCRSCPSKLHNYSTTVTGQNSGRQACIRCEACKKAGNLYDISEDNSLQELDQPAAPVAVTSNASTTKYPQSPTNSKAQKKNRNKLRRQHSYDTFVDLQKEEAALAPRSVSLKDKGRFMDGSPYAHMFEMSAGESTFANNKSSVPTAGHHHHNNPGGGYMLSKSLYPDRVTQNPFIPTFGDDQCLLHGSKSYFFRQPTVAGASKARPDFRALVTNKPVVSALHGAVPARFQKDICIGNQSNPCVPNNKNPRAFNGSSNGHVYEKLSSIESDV
UniProt Q13224, 27-1484 G689C: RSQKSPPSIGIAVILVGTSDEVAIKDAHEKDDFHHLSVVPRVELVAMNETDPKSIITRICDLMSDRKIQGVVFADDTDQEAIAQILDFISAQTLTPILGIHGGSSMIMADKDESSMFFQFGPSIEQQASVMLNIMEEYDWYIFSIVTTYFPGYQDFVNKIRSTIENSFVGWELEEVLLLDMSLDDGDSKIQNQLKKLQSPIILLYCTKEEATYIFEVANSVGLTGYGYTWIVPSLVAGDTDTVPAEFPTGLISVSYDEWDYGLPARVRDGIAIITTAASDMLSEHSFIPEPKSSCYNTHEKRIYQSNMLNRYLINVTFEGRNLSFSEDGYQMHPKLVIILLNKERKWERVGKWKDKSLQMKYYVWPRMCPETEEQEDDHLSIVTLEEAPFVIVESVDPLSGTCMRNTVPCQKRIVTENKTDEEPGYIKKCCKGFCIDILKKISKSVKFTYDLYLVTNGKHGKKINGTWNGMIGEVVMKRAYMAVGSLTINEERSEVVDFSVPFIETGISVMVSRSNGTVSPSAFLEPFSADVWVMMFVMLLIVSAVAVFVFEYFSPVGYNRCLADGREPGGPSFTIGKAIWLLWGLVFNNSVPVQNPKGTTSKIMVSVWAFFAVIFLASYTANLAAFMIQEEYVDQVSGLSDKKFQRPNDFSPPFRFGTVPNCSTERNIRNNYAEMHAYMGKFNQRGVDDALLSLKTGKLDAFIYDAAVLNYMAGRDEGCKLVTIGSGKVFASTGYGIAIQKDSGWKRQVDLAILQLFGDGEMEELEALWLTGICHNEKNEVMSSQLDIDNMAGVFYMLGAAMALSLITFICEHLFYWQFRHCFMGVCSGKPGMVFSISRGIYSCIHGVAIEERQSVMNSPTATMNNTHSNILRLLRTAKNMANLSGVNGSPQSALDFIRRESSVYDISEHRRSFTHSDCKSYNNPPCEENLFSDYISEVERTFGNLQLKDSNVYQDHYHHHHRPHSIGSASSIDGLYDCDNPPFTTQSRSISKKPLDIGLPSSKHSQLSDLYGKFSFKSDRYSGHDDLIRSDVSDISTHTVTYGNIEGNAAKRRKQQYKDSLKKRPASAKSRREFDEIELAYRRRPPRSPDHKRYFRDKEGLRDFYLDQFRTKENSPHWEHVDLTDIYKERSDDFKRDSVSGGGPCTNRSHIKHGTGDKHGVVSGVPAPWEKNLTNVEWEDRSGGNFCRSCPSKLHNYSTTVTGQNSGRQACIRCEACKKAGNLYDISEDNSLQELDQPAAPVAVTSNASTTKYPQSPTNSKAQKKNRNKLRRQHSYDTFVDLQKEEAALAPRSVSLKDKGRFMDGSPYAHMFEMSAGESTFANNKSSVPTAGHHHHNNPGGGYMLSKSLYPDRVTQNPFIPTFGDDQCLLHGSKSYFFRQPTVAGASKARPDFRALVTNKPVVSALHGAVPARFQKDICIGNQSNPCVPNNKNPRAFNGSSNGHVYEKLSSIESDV

The structures appear in SMILES notation. Where two headings read alike, the source gives them in different places. A value given as a limit tells only on which side of the number the result lay.

The target of assay [1] is T1, hGluN1a + hGluN2B-G689S (Homo sapiens, UniProt Q05586+Q13224, G689S). Kind of assay: Apparent open probability: MK-801 block kinetics, TEVC in oocytes. Format: cell-based. Further details: expressed in transfected cells; host or cells: Xenopus laevis oocytes injected with in vitro transcribed mRNA. Conditions: 1 μM MK-801 after 3 mM glutamate, 100 μM glycine.
For assay [2], the target named is T2, hGluN1a + hGluN2B-G689C (Homo sapiens, UniProt Q05586+Q13224, G689C). The description is as above. Format: cell-based. Details: expressed in transfected cells; host or cells: Xenopus laevis oocytes injected with in vitro transcribed mRNA (pCI-Neo plasmids produced by the Traynelis lab). As to conditions: 1 μM MK-801 after 3 mM glutamate, 100 μM glycine.
In a further assay the target is hGluN1a + GluN2B-G689C (Homo sapiens, UniProt Q05586+Q13224, G689C). Kind of assay: Assessing potentiation by D-serine, TEVC in oocytes. As to conditions: 100 μM D-serine, 1 μM glycine.
For another assay, the target named is hGluN1a + GluN2B-G689S (Homo sapiens, UniProt Q05586+Q13224, G689S). Described as above. Conditions: 100 μM D-serine, 1 μM glycine.
In assay [3] the test system is hGluN1a and hGluN2B-wt or GluN2B-G689C or G689S. The assay is described as follows: Assessing potentiation by D-serine, TEVC in oocytes (all channel types together). Conditions: 100 μM D-serine; for augmentation of currents by D-serine: 5 mM glutamate.
For assay [4], the system named is hGluN1a and hGluN2B-wt or GluN2B-G689C or G689S (all channel types). The assay is described as follows: Arcaine block / competition assay, TEVC in oocytes. The format is cell-based, human. Conditions: 200 μM arcaine, 5 mM glutamate, 100 μM glycine, pH 6.5.
The target in assay [5] is T2, hGluN1a + hGluN2B-G689C. Kind of assay: Mg2+ dose-response (block), TEVC in Xenopus oocytes. As to conditions: 5 mM glutamate, 100 μM glycine, −60 mV; read-out: Mg^+2 IC50 (−60 mV). Further details: expressed in transfected cells; host or cells: Xenopus laevis oocytes injected with in vitro transcribed mRNA (pCI-Neo plasmids produced by the Traynelis lab). Format: cell-based. The source says:
(§1) All automatically identified minis were validated by user.

Assay [6] concerns the target T1, hGluN1a + hGluN2B-G689S. The description is as above. The format is cell-based. Further details: expressed in transfected cells; host or cells: Xenopus laevis oocytes injected with in vitro transcribed mRNA. Conditions: 5 mM glutamate, 100 μM glycine, −60 mV; read-out: Mg^+2 IC50 (−60 mV).
From the text: as §1

Assay [7] has as its system hGluN1a + hGluN2B-wt + hGluN2B-G689C. Format: cell-based, human.
The subject of assay [8] is hGluN1a + hGluN2B-wt + hGluN2B-G689S. The assay is described as follows: Dominant-negative experiments: glutamate dose-response of mixed channels (mRNA titration), TEVC in oocytes. The format is cell-based, human.

In the case of `C[C@]12N[C@H](Cc3ccccc31)c1ccccc12` [MK-801], the “10–90% inhibition rate” value at hGluN1a + hGluN2B-G689S [1] is listed as 18904 ± 1375 ms; (26); at hGluN1a + hGluN2B-G689C [2], 9604 ± 547 ms; (29). For the same molecule, the figures for the τoff at hGluN1a + hGluN2B-G689S [1] (mono-exponential fit) and at hGluN1a + hGluN2B-G689C [2] (mono-exponential fit) were 7907 ± 658 ms; (26) and 4950 ± 456 ms; (29), respectively.

On to `N[C@H](CO)C(=O)O` [D-serine], for which the “current with D-serine as fraction of the total current (5 mM glutamate)” value on hGluN1a + GluN2B-G689C (10 μM glutamate) is recorded as less than 15%. Moreover, the “increase in the glutamate current by D-serine” value at hGluN1a + GluN2B-G689C (10 μM glutamate) is listed as ~ 2 fold. For the same molecule, the “increase of the maximal current by D-serine” value on hGluN1a + GluN2B-G689C (5 mM glutamate) and on hGluN1a + GluN2B-G689S (5 mM glutamate) was ~ 60% each time. Also, the “response to D-serine” value at hGluN1a + GluN2B-G689S (10 μM glutamate) was “did not show any responses”. In addition, the “augmentation of currents by D-serine” value in assay [3] (10 μM glycine) is on record as “poorly augmented”; in [3] (100 μM (saturating) glycine), “no augmentation”. Also, the “observed increases in currents by D-serine” value in [3] (sub-saturating glycine) was “up to 60%”.

As to `NC(N)=NCCCCN=C(N)N` [arcaine, arcaine-sulfate], the inhibition by arcaine in assay [4] is reported as ~ 90%.

With `[Mg+2]` [Mg^+2], the concentration for half-maximal inhibition (IC50) is 34.5 ± 3.8 µM on hGluN1a + hGluN2B-G689C [5] and 40 ± 2.1 µM on hGluN1a + hGluN2B-G689S [6].

As for `N[C@@H](CCC(=O)O)C(=O)O` [Glutamate, glutamate], the EC50 in [7] (wtE (1:1 G689C), read-out: EC50 Two site saturation (Equation 2) KD^H) was 1.73 µM; in assay [7] (wtE (1:1 G689C), read-out: EC50 Two site saturation (Equation 2) KD^L (converted)), 2130 µM; in assay [7] (wtE (1:1 G689C), read-out: EC50 Two site saturation (Equation 3) KD^H), 0.812 µM; in assay [7] (wtE (1:1 G689C), read-out: EC50 Two site saturation (Equation 3) KD^L (converted)), 778 µM; in [7] (wtH (16:1 G689C), normalized to 100 μm glutamate, read-out: EC50 Two site saturation (Equation 3) KD^H) it was 0.212 µM; in assay [7] (wtH (16:1 G689C), normalized to 100 μm glutamate, read-out: EC50 Two site saturation (Equation 3) KD^L (converted)), 154 µM. The EC50 in assay [7] (wtH (16:1 G689C), read-out: EC50 Two site saturation (Equation 2) KD^L (converted)) was 366 µM; in assay [7] (wtH (16:1 G689C), read-out: EC50 Two site saturation (Equation 3) KD^H), 0.212 µM; in [7] (wtL (1:16 G689C), read-out: EC50 Two site saturation (Equation 2) KD^H), 646 µM; in assay [7] (wtL (1:16 G689C), read-out: EC50 Two site saturation (Equation 2) KD^L (converted)) it was 5490 µM; in assay [7] (wtL (1:16 G689C), read-out: EC50 Two site saturation (Equation 3) KD^H), 65 µM; in assay [7] (wtL (1:16 G689C), read-out: EC50 Two site saturation (Equation 3) KD^L (converted)), 1430 µM. Further, the EC50 in [8] (wtE (1:1 G689S), read-out: EC50 Two site saturation (Equation 2) KD^H) was 3.5 µM; in assay [8] (wtE (1:1 G689S), read-out: EC50 Two site saturation (Equation 2) KD^L (converted)), 2460 µM; in assay [8] (wtE (1:1 G689S), read-out: EC50 Two site saturation (Equation 3) KD^H), 3.79 µM; in assay [8] (wtE (1:1 G689S), read-out: EC50 Two site saturation (Equation 3) KD^L (converted)), 1210 µM; in assay [8] (wtH (16:1 G689S), normalized to 100 μm glutamate, read-out: EC50 Two site saturation (Equation 2) KD^L (converted)), 3390 µM; in [8] (wtH (16:1 G689S), normalized to 100 μm glutamate, read-out: EC50 Two site saturation (Equation 3) KD^H) it was 0.481 µM. Further, the EC50 is 1120 µM in assay [8] (wtH (16:1 G689S), normalized to 100 μm glutamate, read-out: EC50 Two site saturation (Equation 3) KD^L (converted)); 3460 µM in [8] (wtH (16:1 G689S), read-out: EC50 Two site saturation (Equation 2) KD^L (converted)); 1130 µM in [8] (wtH (16:1 G689S), read-out: EC50 Two site saturation (Equation 3) KD^L (converted)).
